The target in this test is T1, CD25 wild type (WT) CD25-Fc (human, UniProt P01589 22-240).
T1 construct: also called CD25 WT; wild type (WT) mature CD25 polypeptide; not shown: Fc part of CD25-Fc
T1 sequence: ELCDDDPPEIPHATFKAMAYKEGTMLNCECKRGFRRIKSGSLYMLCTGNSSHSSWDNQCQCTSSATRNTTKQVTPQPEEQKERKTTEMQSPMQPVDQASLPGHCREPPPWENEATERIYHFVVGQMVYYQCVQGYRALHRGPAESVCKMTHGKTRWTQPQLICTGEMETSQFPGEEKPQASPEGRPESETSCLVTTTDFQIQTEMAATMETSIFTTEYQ
The test can be described thus: BLI; CD25-Fc on anti-hFc biosensor, basiliximab Fab in solution; global 1:1 fit.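 Also: biolayer interferometry signals normalized against a reference probe and smoothed with a Savitzky-Golay filter before the global fit.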 Background: BLI is a label-free optical method that tracks binding on a fibre tip over time.

B1: basiliximab fab (Fab, V domains shown)
VH: QLQQSGTVLARPGASVKMSCKASGYSFTRYWMHWIKQRPGQGLEWIGAIYPGNSDTSYNQKFEGKAKLTAVTSASTAYMELSSLTHEDSAVYYCSRDYGYYFDFWGQGTTLTVSS
VL: QIVSTQSPAIMSASPGEKVTMTCSASSSRSYMQWYQQKPGTSPKRWIYDTSKLASGVPARFSGSGSGTSYSLTISSMEAEDAATYYCHQRSSYTFGGGTKLEIKR
notes: The assay used a Fab of basiliximab; Chimeric antibody: human IgG1 constant, mouse variable domains
In turn, B1 yielded an equilibrium dissociation constant (Kd) of 3.45 nM, a koff of 0.008 s⁻¹ and a kon of 2.32e+06 M⁻¹ s⁻¹.

Broadly, the Kd is a measure of binding affinity in units of concentration. The low end stands for higher affinity, the high end for lower affinity. As a reminder, the koff is the first-order rate constant of dissociation. Lower therefore signals a long-lived complex. The kon is a measure of how fast the partners come together.

Source of the values: US20230056336A1 (KYVERNA THERAPEUTICS, published 2023).
